Molecular target: Translocator protein (Homo sapiens, UniProt P30536)
Assay: Displacement of [3H]PK11195 from TSPO in human HEK293 mitochondrial fraction
In short: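 Ki determined by competition with [3H]PK11195 for TSPO. Sources were rat heart membrane homogenates and mitochondrial-enriched fractions of rat kidney and of HEK293 cells. Mean ± SEM of at least three independent experiments, each run in duplicate.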

Chains of the proteins cited; added tags and fusions are not shown.
UniProt P30536, whole entry: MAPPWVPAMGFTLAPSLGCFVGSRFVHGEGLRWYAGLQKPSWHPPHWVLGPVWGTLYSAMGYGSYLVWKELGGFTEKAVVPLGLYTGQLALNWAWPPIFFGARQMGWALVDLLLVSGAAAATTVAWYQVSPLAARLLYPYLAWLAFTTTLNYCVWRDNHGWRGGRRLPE

Ki: 7.11 nM
SMILES: CCC(C)N(C)C(=O)c1cc2ccccc2c(-c2ccccc2Cl)n1 (stereo unspecified) [PK-11195]

From ChEMBL document CHEMBL1817668, “Synthesis of 6-[¹⁸F]fluoro-PBR28, a novel radiotracer for imaging the TSPO 18 kDa with PET” (Bioorg Med Chem Lett, 2011)
